Experimental data from US9018162B2, “Methods for rapidly treating severe hypoglycemia” (Xeris Pharmaceuticals, Inc., priority 2013, dated 2015).

Experiment: Effect of pH on pramlintide solubility in DMSO (visual, A630)
Assay type: physicochemical
Procedure: Pramlintide acetate was dissolved in H2O at 2 mg/mL with either a 10 mM citrate buffer, pH 4 or 10 mM phosphate buffer, pH 7. These solutions were lyophilized to dryness ([…]) using a conservative cycle and reconstituted to various nominal concentrations in DMSO. Solubility was measured by visual inspection for clarity and turbidity via A630.

solubility in DMSO (pH memory of 4, low concentration): soluble
solubility in DMSO (pH memory of 7): At no concentration
Compound: CC[C@H](C)[C@H](NC(=O)[C@@H]1CCCN1C(=O)CNC(=O)[C@H](Cc1ccccc1)NC(=O)[C@H](CC(N)=O)NC(=O)[C@H](CC(N)=O)NC(=O)[C@H](CO)NC(=O)[C@H](CO)NC(=O)[C@H](Cc1c[nH]cn1)NC(=O)[C@@H](NC(=O)[C@H](CC(C)C)NC(=O)[C@H](Cc1ccccc1)NC(=O)[C@H](CC(N)=O)NC(=O)[C@H](C)NC(=O)[C@H](CC(C)C)NC(=O)[C@H](CCCNC(=N)N)NC(=O)[C@H](CCC(N)=O)NC(=O)[C@@H](NC(=O)[C@H](C)NC(=O)[C@@H]1CSSC[C@H](NC(=O)[C@@H](N)CCCCN)C(=O)N[C@@H](CC(N)=O)C(=O)N[C@@H]([C@@H](C)O)C(=O)N[C@@H](C)C(=O)N[C@@H]([C@@H](C)O)C(=O)N1)[C@@H](C)O)C(C)C)C(=O)N[C@@H](CC(C)C)C(=O)N1CCC[C@H]1C(=O)N1CCC[C@H]1C(=O)N[C@H](C(=O)N[C@@H](CC(N)=O)C(=O)N[C@H](C(=O)NCC(=O)N[C@@H](CO)C(=O)N[C@@H](CC(N)=O)C(=O)N[C@H](C(=O)N[C@@H](Cc1ccc(O)cc1)C(N)=O)[C@@H](C)O)C(C)C)[C@@H](C)O [pramlintide]
